Measured values from US4835152A, “1-(4-Aminophenyl)-4-methyl-7,8-methylenedioxy-3,4-dihydro-5H-2,3-b enzodiazepine and acid addition salts thereof same” (Biogal Gyogyszergyar, priority 1986, dated 1989).

Experiment: Dependence studies, DAF (drug admixed food) method
Details: 0.05% (w/w) in food, 6 weeks, average daily dose 40 mg/kg, two weeks after withdrawal

## CC1Cc2cc3c(cc2C(c2ccc(N)cc2)=NN1)OCO3 (stereo not shown) [Example 1, 1-(4-aminophenyl)-4-methyl-7,8-methylenedioxy-3,4-dihydro-5H-2,3-benzodiazepine]
  Withdrawal symptoms or signs of dependence: Withdrawal symptoms or signs of dependence were not observed
